Results taken from paper PMC9822396 (Molecules, 2022).

Sequences of proteins named here, by UniProt entry; tags and fusion partners are left off. Residues count along the entry.
UniProt P27338, whole entry: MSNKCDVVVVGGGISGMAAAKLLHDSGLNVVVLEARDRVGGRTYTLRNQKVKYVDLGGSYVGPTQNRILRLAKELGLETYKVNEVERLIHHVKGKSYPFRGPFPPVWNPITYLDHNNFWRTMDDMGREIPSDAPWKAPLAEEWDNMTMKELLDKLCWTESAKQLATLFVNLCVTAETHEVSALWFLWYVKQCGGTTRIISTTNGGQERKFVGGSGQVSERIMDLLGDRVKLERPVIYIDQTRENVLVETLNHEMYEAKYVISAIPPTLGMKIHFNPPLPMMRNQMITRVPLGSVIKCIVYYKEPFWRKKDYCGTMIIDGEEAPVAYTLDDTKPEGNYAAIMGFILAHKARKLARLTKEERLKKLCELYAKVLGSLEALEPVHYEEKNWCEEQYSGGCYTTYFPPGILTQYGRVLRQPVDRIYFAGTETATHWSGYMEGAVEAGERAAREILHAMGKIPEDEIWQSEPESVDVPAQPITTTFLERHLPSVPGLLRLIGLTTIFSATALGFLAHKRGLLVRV
UniProt O42275, 24-633: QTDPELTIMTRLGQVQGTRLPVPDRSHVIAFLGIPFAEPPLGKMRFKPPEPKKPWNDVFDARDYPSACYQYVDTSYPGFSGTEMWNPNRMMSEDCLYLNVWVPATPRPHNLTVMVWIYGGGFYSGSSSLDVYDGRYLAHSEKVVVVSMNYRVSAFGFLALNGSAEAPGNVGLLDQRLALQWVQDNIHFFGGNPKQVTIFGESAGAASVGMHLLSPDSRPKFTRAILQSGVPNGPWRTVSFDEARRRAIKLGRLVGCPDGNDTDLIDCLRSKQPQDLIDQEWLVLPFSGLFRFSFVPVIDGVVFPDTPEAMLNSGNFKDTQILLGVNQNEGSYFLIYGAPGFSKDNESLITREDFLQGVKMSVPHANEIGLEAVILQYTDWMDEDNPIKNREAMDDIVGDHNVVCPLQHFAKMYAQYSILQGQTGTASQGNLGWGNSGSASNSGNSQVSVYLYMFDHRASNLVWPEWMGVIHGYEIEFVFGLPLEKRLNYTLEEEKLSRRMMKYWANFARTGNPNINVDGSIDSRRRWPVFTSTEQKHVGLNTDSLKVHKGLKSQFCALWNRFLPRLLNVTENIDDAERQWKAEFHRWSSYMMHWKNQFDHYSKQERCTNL
UniProt P81908, whole entry: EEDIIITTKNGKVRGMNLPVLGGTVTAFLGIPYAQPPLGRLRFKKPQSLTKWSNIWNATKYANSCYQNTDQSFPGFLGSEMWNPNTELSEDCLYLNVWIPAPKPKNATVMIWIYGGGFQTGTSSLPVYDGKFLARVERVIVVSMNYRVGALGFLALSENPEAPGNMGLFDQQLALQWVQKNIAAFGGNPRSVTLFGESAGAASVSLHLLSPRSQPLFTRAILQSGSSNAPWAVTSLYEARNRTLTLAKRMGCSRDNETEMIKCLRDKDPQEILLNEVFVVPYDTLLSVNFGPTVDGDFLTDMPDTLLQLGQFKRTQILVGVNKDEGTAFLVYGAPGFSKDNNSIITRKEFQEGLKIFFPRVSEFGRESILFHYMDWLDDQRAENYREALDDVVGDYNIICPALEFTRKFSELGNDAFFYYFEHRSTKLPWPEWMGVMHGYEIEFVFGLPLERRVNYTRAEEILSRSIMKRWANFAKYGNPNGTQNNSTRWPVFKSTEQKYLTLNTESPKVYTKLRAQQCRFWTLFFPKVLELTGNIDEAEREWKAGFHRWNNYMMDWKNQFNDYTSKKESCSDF

How the values were obtained:
hMAO-B [1] = target: T1, hMAO-B (Homo sapiens, UniProt P27338); assay type: biochemical; conditions: hMAO-B selectivity: IC50 of hMAO-A divided by IC50 of hMAO-B
T1 construct: purchased Sigma-Aldrich
Method: (§1) All other chemicals were of reagent grade.
(§2) hMAO-A and -B activities were determined using a continuous spectrophotometric method, as described previously. […] AChE and BChE activities were assayed as described by Ellman et al., with slight modification. Reactions were performed using AChE and BChE in the 0.5 mL reaction mixtures including 0.5 mM substrate (ATCI and BTCI, respectively) and color reagent (DTNB). […] Reaction rates are expressed as changes in absorbance per min.. Inhibitory activities of AChE and BChE were measured after preincubating enzyme with inhibitors for 15 min before adding DTNB and each substrate. […]

AChE = target: T2, AChE (Electrophorus electricus, UniProt O42275); test: AChE inhibition (Ellman method); assay type: biochemical; conditions: read-out: Residual Activity at 10 µM (%) AChE
T2 construct: purchased Sigma-Aldrich
Method: as §1, §2

BChE = target: T3, BChE (Equus caballus, UniProt P81908); test: BChE inhibition (Ellman method); assay type: biochemical, equine; conditions: read-out: Residual Activity at 10 µM (%) BChE
T3 construct: BChE from equine serum; purchased Sigma-Aldrich; host or cells: equine serum
Method: as §1, §2

hMAO-B [2] = target: T1, hMAO-B; conditions: read-out: hMAO-B inhibitory activity; cited from earlier work

| SMILES | SI (hMAO-B [1]) | remaining activity at 10 µM (AChE) [%] | remaining activity at 10 µM (BChE) [%] | IC50 (hMAO-B [2]) [nM] |
| --- | --- | --- | --- | --- |
| COc1cc([C@H]2OC[C@H]3[C@@H]2CO[C@@H]3c2cc(OC)c(O)c(OC)c2)cc(OC)c1O [Compound 5, (+)-syringaresinol] | >1.64 | 84.49 ± 0.75 | 99.41 ± 0.83 | – |
| COc1ccc(-c2cc(=O)c3c(O)cc(O)cc3o2)cc1 [acacetin] | – | – | – | 170 |
